From patent publication US8741330B2, “Transluminal drug delivery methods and devices” (priority 2006, dated 2014) come the findings set out here.

Molecules are shown by their SMILES.

For the data set the following is noted: ratio 3:7 lidocaine to carrier base, 40° C.

With `CCN(CC)CC(=O)Nc1c(C)cccc1C` [lidocaine], the “highest concentration lidocaine mixture achievable with the carrier base materials tried” value was found to be 30%.
